Reference: ChEMBL document CHEMBL6134819, “Discovery of novel tranylcypromine-indazole-based derivatives as LSD1 inhibitors for acute myeloid leukemia treatment” (Eur J Med Chem, 2025)

Target: Lysine-specific histone demethylase 1A (Homo sapiens, UniProt O60341)
Assay: Inhibition of human recombinant LSD1 (852 residues) incubated for 1 hr by HTRF method

Q: With `Cl.O=S(=O)(c1ccccc1)n1ncc2cc(-n3cc(CN[C@@H]4C[C@H]4c4ccc(F)c(F)c4)nn3)ccc21` as the compound, how does the IC50 read?
A: 9.85 nM
